Measurements taken from patent US6117878A, “8-phenyl- or 8-cycloalkyl xanthine antagonists of A2B human adenosine receptors” (priority 1998, dated 2000).

What was measured:
[1] = molecular target: T1, recombinant human A2B adenosine receptors (Homo sapiens, UniProt P29275); assay: Competition binding screen, A2B (Table 1); parameters: expressed in transfected cells; host or cells: cells expressing the recombinant receptor
T1 sequence (P29275 1-332): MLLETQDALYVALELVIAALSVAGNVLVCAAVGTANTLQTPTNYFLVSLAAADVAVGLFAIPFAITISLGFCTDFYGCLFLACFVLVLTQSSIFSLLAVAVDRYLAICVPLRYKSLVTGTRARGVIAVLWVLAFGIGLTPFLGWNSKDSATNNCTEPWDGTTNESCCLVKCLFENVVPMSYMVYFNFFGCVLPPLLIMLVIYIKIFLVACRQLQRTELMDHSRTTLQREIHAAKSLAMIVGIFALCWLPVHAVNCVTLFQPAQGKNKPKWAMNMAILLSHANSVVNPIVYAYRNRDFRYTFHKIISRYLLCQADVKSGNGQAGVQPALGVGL
Description: This was done in competition binding assays using recombinant human A1, A2A, A2B or A3 adenosine receptors, similar to that illustrated in FIGS. 2A and 2B.

adenosine receptors = details: enprofylline: therapeutic concentration range of 20-50 uM, examined at A1 and A2A only; cited from earlier work

O=C(O)C=Cc1ccc(-c2nc3c([nH]2)c(=O)n(CC2CCCCC2)c(=O)n3CC2CCCCC2)cc1 [BW-A493]
Potency as antagonist of human A2B adenosine receptors relative to enprofylline ([1]; BW-A493 versus enprofylline): approximately 35 times
A2B selectivity / antagonism (in words) ([1]; human A2B versus other adenosine receptors): potent and selective antagonist of human A2B adenosine receptors

Cn1c(=O)c2[nH]cnc2n(C)c1=O [theophylline]
Block of adenosine receptors (literature) (adenosine receptors): known to block adenosine receptors
